Reference: PubChem BioAssay (NCI)
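Results reflect a 48-hour exposure of cells in 96-well plates to compound at five concentrations. GI50 marks 50% less growth. TGI: concentration producing complete growth inhibition.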

How the values were obtained:
Assay in all cases: NCI anticancer screen, dose series, 48 h
UO-31 renal = tested on: UO-31 renal
NCI/ADR-RES ovarian = tested on: NCI/ADR-RES ovarian
NCI-H322M lung = tested on: NCI-H322M lung
MDA-MB-435 = tested on: MDA-MB-435
MALME-3M melanoma = tested on: MALME-3M melanoma
CCRF-CEM leukemia = tested on: CCRF-CEM leukemia
SNB-19 CNS = tested on: SNB-19 CNS
SK-OV-3 ovarian = tested on: SK-OV-3 ovarian
IGROV1 ovarian = tested on: IGROV1 ovarian
RPMI-8226 leukemia = tested on: RPMI-8226 leukemia
SF-539 CNS = tested on: SF-539 CNS
K-562 leukemia = tested on: K-562 leukemia
MCF7 breast = tested on: MCF7 breast
SF-295 CNS = tested on: SF-295 CNS
SK-MEL-28 melanoma = tested on: SK-MEL-28 melanoma
OVCAR-8 ovarian = tested on: OVCAR-8 ovarian
HT29 colon = tested on: HT29 colon
MOLT-4 leukemia = tested on: MOLT-4 leukemia
NCI-H522 lung = tested on: NCI-H522 lung
A498 renal = tested on: A498 renal
U251 CNS = tested on: U251 CNS
COLO 205 colon = tested on: COLO 205 colon
OVCAR-4 ovarian = tested on: OVCAR-4 ovarian
A549 NSCLC = tested on: A549 NSCLC
T-47D breast = tested on: T-47D breast
OVCAR-5 ovarian = tested on: OVCAR-5 ovarian
SNB-75 CNS = tested on: SNB-75 CNS
DU-145 prostate = tested on: DU-145 prostate
HCC-2998 colon = tested on: HCC-2998 colon
PC-3 prostate = tested on: PC-3 prostate
SF-268 CNS = tested on: SF-268 CNS
UACC-62 melanoma = tested on: UACC-62 melanoma
TK-10 renal = tested on: TK-10 renal
NCI-H460 lung = tested on: NCI-H460 lung
SW-620 colon = tested on: SW-620 colon
786-0 renal = tested on: 786-0 renal
MDA-MB-231 breast = tested on: MDA-MB-231 breast
SN12C renal = tested on: SN12C renal
M14 melanoma = tested on: M14 melanoma
HOP-62 NSCLC = tested on: HOP-62 NSCLC
HCT-15 colon = tested on: HCT-15 colon
HOP-92 NSCLC = tested on: HOP-92 NSCLC
SK-MEL-2 melanoma = tested on: SK-MEL-2 melanoma
SK-MEL-5 melanoma = tested on: SK-MEL-5 melanoma
NCI-H226 lung = tested on: NCI-H226 lung
HL-60(TB) leukemia = tested on: HL-60(TB) leukemia
HS 578T breast = tested on: HS 578T breast
BT-549 breast = tested on: BT-549 breast
HCT-116 colon = tested on: HCT-116 colon
SR leukemia = tested on: SR leukemia
CAKI-1 renal = tested on: CAKI-1 renal
ACHN renal = tested on: ACHN renal
OVCAR-3 ovarian = tested on: OVCAR-3 ovarian
LOX IMVI melanoma = tested on: LOX IMVI melanoma
KM12 colon = tested on: KM12 colon
RXF 393 renal = tested on: RXF 393 renal
NCI-H23 lung = tested on: NCI-H23 lung

CCOc1ccc(N(CCCl)CCCl)cc1
GI50 (UO-31 renal): 5.41 µM | TGI (UO-31 renal): 47.3 µM | GI50 (NCI/ADR-RES ovarian): 9.39 µM | TGI (NCI/ADR-RES ovarian): > 100 µM | GI50 (NCI-H322M lung): 56.5 µM | TGI (NCI-H322M lung): > 100 µM | GI50 (MDA-MB-435): 13.3 µM | TGI (MDA-MB-435): 35 µM | GI50 (MALME-3M melanoma): 15.4 µM | TGI (MALME-3M melanoma): 38.3 µM | GI50 (CCRF-CEM leukemia): 2.15 µM | TGI (CCRF-CEM leukemia): 78.5 µM | GI50 (SNB-19 CNS): 7.72 µM | TGI (SNB-19 CNS): > 100 µM | GI50 (SK-OV-3 ovarian): 10.4 µM | TGI (SK-OV-3 ovarian): > 100 µM | GI50 (IGROV1 ovarian): 14.4 µM | TGI (IGROV1 ovarian): > 100 µM | GI50 (RPMI-8226 leukemia): 15.5 µM | TGI (RPMI-8226 leukemia): 57.5 µM | GI50 (SF-539 CNS): 2.15 µM | TGI (SF-539 CNS): 7.61 µM | GI50 (K-562 leukemia): 10.3 µM | TGI (K-562 leukemia): > 100 µM | GI50 (MCF7 breast): 1.72 µM | TGI (MCF7 breast): > 100 µM | GI50 (SF-295 CNS): 3.71 µM | TGI (SF-295 CNS): 34.4 µM | GI50 (SK-MEL-28 melanoma): 15.4 µM | TGI (SK-MEL-28 melanoma): 51.2 µM | GI50 (OVCAR-8 ovarian): 7.33 µM | TGI (OVCAR-8 ovarian): 98.1 µM | GI50 (HT29 colon): 16.3 µM | TGI (HT29 colon): > 100 µM | GI50 (MOLT-4 leukemia): 3.08 µM | TGI (MOLT-4 leukemia): 52.1 µM | GI50 (NCI-H522 lung): 6.37 µM | TGI (NCI-H522 lung): 28.6 µM | GI50 (A498 renal): 13.9 µM | TGI (A498 renal): 32.9 µM | GI50 (U251 CNS): 3.85 µM | TGI (U251 CNS): 29 µM | GI50 (COLO 205 colon): 12.6 µM | TGI (COLO 205 colon): 35.1 µM | GI50 (OVCAR-4 ovarian): 19.1 µM | TGI (OVCAR-4 ovarian): 66.2 µM | GI50 (A549 NSCLC): 5.58 µM | TGI (A549 NSCLC): > 100 µM | GI50 (T-47D breast): 8.23 µM | TGI (T-47D breast): > 100 µM | GI50 (OVCAR-5 ovarian): 20.9 µM | TGI (OVCAR-5 ovarian): 66.6 µM | GI50 (SNB-75 CNS): 6 µM | TGI (SNB-75 CNS): 49.9 µM | GI50 (DU-145 prostate): 5.85 µM | TGI (DU-145 prostate): > 100 µM | GI50 (HCC-2998 colon): 20.4 µM | TGI (HCC-2998 colon): 84.4 µM | GI50 (PC-3 prostate): 15.6 µM | TGI (PC-3 prostate): > 100 µM | GI50 (SF-268 CNS): 4.58 µM | TGI (SF-268 CNS): 80 µM | GI50 (UACC-62 melanoma): 4.77 µM | TGI (UACC-62 melanoma): 21.4 µM | GI50 (TK-10 renal): 22.2 µM | TGI (TK-10 renal): 66 µM | GI50 (NCI-H460 lung): 2.06 µM | TGI (NCI-H460 lung): 33.9 µM | GI50 (SW-620 colon): 11.4 µM | TGI (SW-620 colon): > 100 µM | GI50 (786-0 renal): 3.2 µM | TGI (786-0 renal): 10.8 µM | GI50 (MDA-MB-231 breast): 25.2 µM | TGI (MDA-MB-231 breast): 83.3 µM | GI50 (SN12C renal): 2.97 µM | TGI (SN12C renal): > 100 µM | GI50 (M14 melanoma): 5.28 µM | TGI (M14 melanoma): 42.7 µM | GI50 (HOP-62 NSCLC): 12.4 µM | TGI (HOP-62 NSCLC): 80.6 µM | GI50 (HCT-15 colon): 13.7 µM | TGI (HCT-15 colon): 91.3 µM | GI50 (HOP-92 NSCLC): 5.53 µM | TGI (HOP-92 NSCLC): 38.3 µM | GI50 (SK-MEL-2 melanoma): 20.5 µM | TGI (SK-MEL-2 melanoma): 39.9 µM | GI50 (SK-MEL-5 melanoma): 6.49 µM | TGI (SK-MEL-5 melanoma): 21.4 µM | GI50 (NCI-H226 lung): 6.76 µM | TGI (NCI-H226 lung): > 100 µM | GI50 (HL-60(TB) leukemia): 3.01 µM | TGI (HL-60(TB) leukemia): 29.2 µM | GI50 (HS 578T breast): 17.8 µM | TGI (HS 578T breast): 61.7 µM | GI50 (BT-549 breast): 10.9 µM | TGI (BT-549 breast): 38.1 µM | GI50 (HCT-116 colon): 8.44 µM | TGI (HCT-116 colon): 24.9 µM | GI50 (SR leukemia): 1.31 µM | TGI (SR leukemia): 65.1 µM | GI50 (CAKI-1 renal): 2.04 µM | TGI (CAKI-1 renal): 20.8 µM | GI50 (ACHN renal): 1.28 µM | TGI (ACHN renal): 7.07 µM | GI50 (OVCAR-3 ovarian): 17.8 µM | TGI (OVCAR-3 ovarian): 50.8 µM | GI50 (LOX IMVI melanoma): 4.78 µM | TGI (LOX IMVI melanoma): 31.2 µM | GI50 (KM12 colon): 23.7 µM | TGI (KM12 colon): 96.3 µM | GI50 (RXF 393 renal): 3.42 µM | TGI (RXF 393 renal): 15.8 µM | GI50 (NCI-H23 lung): 6.19 µM | TGI (NCI-H23 lung): 86.4 µM
